Target: T1, PXR (Homo sapiens, UniProt O75469)
T1 sequence (O75469 107-434): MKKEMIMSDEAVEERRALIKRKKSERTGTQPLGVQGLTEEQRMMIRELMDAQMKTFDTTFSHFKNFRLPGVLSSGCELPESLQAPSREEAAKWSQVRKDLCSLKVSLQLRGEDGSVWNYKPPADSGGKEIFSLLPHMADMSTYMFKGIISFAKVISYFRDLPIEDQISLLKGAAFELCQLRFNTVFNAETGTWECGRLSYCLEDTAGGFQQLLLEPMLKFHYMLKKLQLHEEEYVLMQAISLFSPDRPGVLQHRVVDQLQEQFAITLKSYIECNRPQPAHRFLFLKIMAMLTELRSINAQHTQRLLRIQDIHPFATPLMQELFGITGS
Test: Medium-throughput screening, HG5LN GAL4-PXR-LBD reporter cell line (HeLa)
Conditions: HG5LN GAL4-PXR reporter cells; 3 µM SR12813 = 100% activation; determined prior to the screening
Description: Using medium-throughput ligand screening and a mammalian (HeLa) cell-based activation assay (HG5LN GAL4-PXR-LBD reporter cell line)[14][15], we monitored the agonistic potential of 40 chemicals either alone or in binary mixtures (Supplementary Table 1). […] We next examined the effect of TNC, EE2, and their combination in human liver (HepG2) and colon (LS174T) carcinoma cell lines containing the full-length PXR and the CYP3A4-XREM luciferase reporter plasmids.
LS174T stable human PXR transfectant (LS-PXR2) and the corresponding control cells (LS-CTRL), HEPG2-PXR and HG5LN GAL4-PXR reporter cell lines were previously described. […] HEPG2-PXR was obtained after stable transfection of the same PXR expressing plasmid and the XREM-CYP3A4 pGL3b reporter plasmid. […] Finally, LS174T-PXR reporter cell line was established by stable transfection of the CYP3A4-luciferase-hygromycine plasmid in the LS-PXR2 cell line. […]
HG5LN GAL4-PXR reporter cell lines (100 μl) were seeded at a density of 25,000 cells per well in 96-well white opaque tissue culture plates (Greiner CellStar). […] Luciferase activity was measured for 2 s in intact living cells using a plate reader (PerkinElmer Luminometer). […]
#For each ligand, the concentration used was determined prior to the screening experiment. […]

Hyperforin
Concentration: dose at which the compound alone induces ≈30% of the luciferase expression obtained with 3 µM SR12813: 100 nM

— publication PMC4569708, “Synergistic activation of human pregnane X receptor by binary cocktails of pharmaceutical and environmental compounds” (Nature Communications, 2015)
